Results on 64 compounds are retold here after patent publication EP1202975B1, “SUBSTITUTED POLYCYCLIC ARYL AND HETEROARYL PYRAZINONES USEFUL FOR SELECTIVE INHIBITION OF THE COAGULATION CASCADE” (Pharmacia Corporation, priority 1999, dated 2000).

By UniProt entry, the sequences of proteins in these tests, tags left out. Residues count along the entry.
UniProt P00761, 9-231: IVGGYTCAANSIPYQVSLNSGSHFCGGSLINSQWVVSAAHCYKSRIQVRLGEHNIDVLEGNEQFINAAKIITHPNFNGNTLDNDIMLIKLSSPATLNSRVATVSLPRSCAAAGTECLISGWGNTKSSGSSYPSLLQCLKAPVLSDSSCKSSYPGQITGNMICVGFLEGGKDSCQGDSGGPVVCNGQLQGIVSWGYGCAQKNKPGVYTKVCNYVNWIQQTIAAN

For one test, the target named is T1, Trypsin (type IX from porcine pancreas) (Sus scrofa, UniProt P00761).
Experiment: not given
Conditions: not given
As to `O=C(Cn1c(-c2ccc(-c3ccccc3)cc2)c(Cl)nc(NCCc2cccc(Cl)c2)c1=O)NCCc1cccnc1` [Example E-0116], the “% Inhibition Trpysin II (100 µM)” value is listed as 10%.
Same read-out and setting: next, `O=C(Cn1c(-c2ccc(-c3ccccc3)cc2)c(Cl)nc(NCCc2ccc(Cl)cc2)c1=O)NCCc1cccnc1` [Example E-0119]: 10%.

The test is the same for the next values; noted with them: 100 µM.
As to `O=C(Cn1c(-c2cccc(Cl)c2)c(Cl)nc(NCc2ccccc2)c1=O)NCCc1ccncc1` [Example E-0073], the “% Inhibition Trpysin II (100 µM)” value is 6%.
In the case of `O=C(Cn1c(-c2cccc(Cl)c2)c(Cl)nc(NCc2ccccc2)c1=O)NCCc1cccnc1` [Example E-0074], the “% Inhibition Trpysin II (100 µM)” value is 8%.
Still for that read-out and setting: next, `O=C(Cn1c(-c2cccc(Cl)c2)c(Cl)nc(NCCc2ccccc2)c1=O)NCCc1ccncc1` [Example E-0076]: 10%; `O=C(Cn1c(-c2cccc(Cl)c2)c(Cl)nc(NCCc2ccccc2)c1=O)NCCc1cccnc1` [Example E-0077]: 7%; `O=C(Cn1c(-c2cccc(Cl)c2)c(Cl)nc(NCCc2cccc(Cl)c2)c1=O)NCCc1cccnc1` [Example E-0080]: 5%.
Same read-out and setting: next, `O=C(Cn1c(-c2cccc(Cl)c2)c(Cl)nc(NCCc2ccc(Cl)cc2)c1=O)NCCc1ccncc1` [Example E-0082]: 3%; `O=C(Cn1c(-c2cccc(Cl)c2)c(Cl)nc(NCCc2ccc(Cl)cc2)c1=O)NCCc1cccnc1` [Example E-0083]: 6%.
On to `O=C(Cn1c(-c2cccc(Cl)c2)c(Cl)nc(NCc2ccccc2)c1=O)NCCc1ccncc1` [Example E-0085], for which the “% Inhibition Trpysin II (100 µM)” value was 9%.
Still for that read-out and setting: next, `O=C(Cn1c(-c2cccc(Cl)c2)c(Cl)nc(NCCc2ccccc2)c1=O)NCCc1ccncc1` [Example E-0088]: 9%; `O=C(Cn1c(-c2cccc(Cl)c2)c(Cl)nc(NCCc2ccccc2)c1=O)NCCc1cccnc1` [Example E-0089]: 8%; `O=C(Cn1c(-c2cccc(Cl)c2)c(Cl)nc(NCCc2cccc(Cl)c2)c1=O)NCCc1ccncc1` [Example E-0091]: 8%.
The same measure, in the same setting: next, `O=C(Cn1c(-c2cccc(Cl)c2)c(Cl)nc(NCCc2cccc(Cl)c2)c1=O)NCCc1cccnc1` [Example E-0092]: 9%; `O=C(Cn1c(-c2cccc(Cl)c2)c(Cl)nc(NCCc2ccc(Cl)cc2)c1=O)NCCc1ccncc1` [Example E-0094]: 7%.
Still for that read-out and setting: the value for `O=C(Cn1c(-c2cccc(Cl)c2)c(Cl)nc(NCCc2ccc(Cl)cc2)c1=O)NCCc1cccnc1` [Example E-0095] was 9%.
As for `COc1ccc(-c2c(Cl)nc(NCCc3ccc(Cl)cc3)c(=O)n2CC(=O)NCCc2ccncc2)cc1` [Example E-0106], the “% Inhibition Trpysin II (100 µM)” value is recorded as 9%.
Regarding `O=C(Cn1c(-c2ccc(-c3ccccc3)cc2)c(Cl)nc(NCCc2ccc(Cl)cc2)c1=O)NCCc1ccncc1` [Example E-0118], the “% Inhibition Trpysin II (100 µM)” value turned out to be 9%.

The same test, now with this note: read-out: IC50 or % Inhibition Trpysin II (30 µM); cells given as a plain number (IC50).
Turning to `CC(C)Nc1nc(Cl)c(-c2cc(N)ccc2F)n(CC(=O)NCc2ccc(C(=N)N)cc2F)c1=O` [compound 73], the IC50 (as a rule, the concentration that gives 50% inhibition) was determined as 100 nM.
In the case of `CC(C)Nc1nc(Cl)c(-c2ccc(Cl)nc2)n(CC(=O)NCc2ccc(C(=N)N)cc2F)c1=O` [compound 74], the IC50 was 150 nM.
On the same count and under the same terms, next, `CC(C)Nc1nc(Cl)c(-c2cccnc2)n(CC(=O)NCc2ccc(C(=N)N)cc2)c1=O` [compound 75]: 40 nM; `N=C(N)c1ccc(CNC(=O)Cn2c(-c3cccc([N+](=O)[O-])c3)c(Cl)nc(NCCc3ccccc3)c2=O)cc1` [compound 77]: 1130 nM; `Cc1ccccc1-c1c(Cl)nc(NCCc2ccccc2)c(=O)n1CC(=O)NCc1ccc(C(=N)N)cc1` [compound 78]: 230 nM.
On the same count and under the same terms, the value for `N=C(N)c1ccc(CNC(=O)Cn2c(-c3cccc4ccccc34)c(Cl)nc(NCCc3ccccc3)c2=O)cc1` [compound 80] was 160 nM; that for `Cc1cccc(-c2c(Cl)nc(NCCc3ccccc3)c(=O)n2CC(=O)NCc2ccc(C(=N)N)cc2)c1` [compound 81] was 220 nM.
Same read-out and setting: next, `N=C(N)c1ccc(CNC(=O)Cn2c(-c3ccc4ccccc4c3)c(Cl)nc(NCCc3ccccc3)c2=O)cc1` [compound 82]: 170 nM; `N=C(N)c1ccc(CNC(=O)Cn2c(-c3cccc(N)c3)c(Cl)nc(NCCc3cccc(Cl)c3)c2=O)cc1` [compound 87]: 260 nM; `N=C(N)c1ccc(CNC(=O)Cn2c(-c3cccc(N)c3)c(Cl)nc(NCc3ccccc3)c2=O)cc1` [compound 88]: 270 nM.
On to `N=C(N)c1ccc(CNC(=O)Cn2c(-c3cccc(N)c3)c(Cl)nc(NC3CCC3)c2=O)cc1` [compound 90], for which the IC50 is 100 nM.
The same measure, in the same setting: the value for `N=C(N)NCCCC(NC(=O)Cn1c(-c2cccc(N)c2)c(Cl)nc(NCc2ccccc2)c1=O)C(=O)c1nccs1` (stereo not shown) [compound 91] was 500 nM; that for `N=C(N)c1ccc(CNC(=O)Cn2c(-c3cccc(N)c3)cnc(NC3CCC3)c2=O)cc1` [compound 92] was 250 nM.
In the case of `CC(C)(C)Nc1nc(Cl)c(-c2cccc(N)c2)n(CC(=O)NCc2ccc(C(=N)N)cc2)c1=O` [compound 93], the IC50 is 160 nM.
On the same count and under the same terms, next, `CN(C)Nc1nc(Cl)c(-c2cccc(N)c2)n(CC(=O)NCc2ccc(C(=N)N)cc2)c1=O` [compound 94]: 240 nM; `CNc1cccc(-c2c(Cl)nc(NCCc3ccccc3)c(=O)n2CC(=O)NCc2ccc(C(=N)N)cc2)c1` [compound 95]: 210 nM; `CNc1cccc(-c2c(Cl)nc(NC(C)C)c(=O)n2CC(=O)NCc2ccc(C(=N)N)cc2)c1` [compound 96]: 120 nM.
On to `Cc1c(N)cccc1-c1c(Cl)nc(NC(C)C)c(=O)n1CC(=O)NCc1ccc(C(=N)N)cc1` [compound 97], for which the IC50 stood at 240 nM.
Still for that read-out and setting: next, `Cc1c(N)cccc1-c1cnc(NC(C)C)c(=O)n1CC(=O)NCc1ccc(C(=N)N)cc1` [compound 98]: 70 nM.

In another test the target is T1, Trypsin (type IX from porcine pancreas). In words: biochemical.
Conditions: not given
In turn, `N=C(N)c1ccc(CNC(=O)Cn2c(Cc3ccccc3)cnc(NCCc3ccccc3)c2=O)cc1` [Example 2] yielded an IC50 of 1000 nM.
On the same count and under the same terms, next, `N=C(N)NCCC[C@H](NC(=O)Cn1c(-c2ccccc2)c(Cl)nc(NCCc2ccccc2)c1=O)C(=O)c1nccs1` [Example 3]: 400 nM; `N=C(N)NCCC[C@H](NC(=O)Cn1c(-c2ccccc2)cnc(NCCc2ccccc2)c1=O)C(=O)c1nccs1` [Example 6]: 400 nM; `N=C(N)NCCC[C@H](NC(=O)Cn1c(Cc2ccccc2)cnc(NCCc2ccccc2)c1=O)C(=O)c1nccs1` [Example 7]: 400 nM.
On to `N=C(N)NCCC[C@H](NC(=O)Cn1c(CCc2ccccc2)cnc(NCCc2ccccc2)c1=O)C(=O)c1nccs1` [Example 8], for which inhibition was half-maximal at 400 nM (IC50).
Same read-out and setting: next, `N=C(N)NCCCNC(=O)Cn1c(-c2ccccc2)cnc(NCCc2ccccc2)c1=O` [Example 11]: 1000 nM; `N=C(N)NCCCCNC(=O)Cn1c(-c2ccccc2)cnc(NCCc2ccccc2)c1=O` [Example 12]: 1000 nM; `N=C(N)NCCCCCNC(=O)Cn1c(-c2ccccc2)cnc(NCCc2ccccc2)c1=O` [Example 13]: 14000 nM.
Same read-out and setting: next, `COc1ccc(-c2cnc(NCCc3ccccc3)c(=O)n2CC(=O)NCCCCNC(=N)N)cc1` [Example 14]: 300 nM.
`N=C(N)NCCCCNC(=O)Cn1c(-c2ccc(-c3ccccc3)cc2)cnc(NCCc2ccccc2)c1=O` [Example 15] registered an IC50 of 1000 nM.
`N=C(N)NCCCCNC(=O)Cn1c(-c2ccc3c(c2)OCO3)cnc(NCCc2ccccc2)c1=O` [Example 16] yielded an IC50 of 1000 nM.
On the same count and under the same terms, the value for `CC(C)Nc1nc(Cl)c(-c2cccc(C#N)c2)n(CC(=O)NCc2ccc(C(=N)N)cc2)c1=O` [Example 17] was 240 nM; that for `N=C(N)c1ccc(CNC(=O)Cn2c(-c3ccccc3)c(Cl)nc(CN)c2=O)cc1` [Example 18] was 1130 nM; that for `N=C(N)c1ccc(CNC(=O)Cn2c(-c3ccccc3)c(Cl)nc(NCCN)c2=O)cc1` [Example 44] was 540 nM.
The same measure, in the same setting: the value for `N=C(N)c1ccc(CNC(=O)Cn2c(-c3ccccc3)c(Cl)nc(NCCCN)c2=O)cc1` [Example 45] was 250 nM; that for `N=C(N)c1ccc(CNC(=O)Cn2c(-c3ccccc3)c(Cl)nc(NCCCCN)c2=O)cc1` [Example 46] was 230 nM; that for `N=C(N)NCCCNc1nc(Cl)c(-c2ccccc2)n(CC(=O)NCc2ccc(C(=N)N)cc2)c1=O` [Example 47] was 200 nM.
Same read-out and setting: next, `N=C(N)NCCNc1nc(Cl)c(-c2ccccc2)n(CC(=O)NCc2ccc(C(=N)N)cc2)c1=O` [Example 48]: 380 nM.
`N=C(N)NCCCCNc1nc(Cl)c(-c2ccccc2)n(CC(=O)NCc2ccc(C(=N)N)cc2)c1=O` [Example 49] displayed an IC50 of 190 nM.
The compound `N=C(N)CCNc1nc(Cl)c(-c2ccccc2)n(CC(=O)NCc2ccc(C(=N)N)cc2)c1=O` [Example 50] returned an IC50 of 240 nM.
Same read-out and setting: the value for `N=C(N)c1ccc(CNC(=O)Cn2c(-c3ccccc3)c(Cl)nc(NCc3ccc(C(=N)N)cc3)c2=O)cc1` [Example 51] was 170 nM; that for `N=C(N)c1ccc(CNC(=O)Cn2c(-c3ccccc3)c(Cl)nc(NCc3cccc(C(=N)N)c3)c2=O)cc1` [Example 52] was 150 nM; that for `N#CCCNc1nc(Cl)c(-c2ccccc2)n(CC(=O)NCc2ccc(C(=N)N)cc2)c1=O` [Example 53] was 150 nM.
On the same count and under the same terms, next, `CC(C)Nc1nc(Cl)c(-c2cccc(N)c2)n(CC(=O)NCc2ccc(C(=N)N)s2)c1=O` [Example 55]: 180 nM.
Same read-out and setting: next, `CN(C)c1cccc(-c2c(Cl)nc(NCCc3ccccc3)c(=O)n2CC(=O)NCc2ccc(C(=N)N)cc2)c1` [Example 103]: 450 nM.
The compound `CNc1cccc(-c2c(Cl)nc(NC(C)C)c(=O)n2CC(=O)NCc2ccc(C(=N)N)cc2)c1` [Example 104] yielded an IC50 of 700 nM.
Compound `N=C(N)c1ccc(CNC(=O)Cn2c(-c3ccccc3)cnc(NS(=O)(=O)c3ccccc3)c2=O)cc1` [Example 105] yielded an IC50 of 490 nM.
